scFv variants of Ab-14 (light chain) against a SARS-CoV-2 spike peptide

Data: MIT Lincoln Laboratory AlphaSeq set, Engelhart et al. 2022, doi:10.1038/s41597-022-01779-4, as distributed in FLAb.

Antigen: PDVDLGDISGINAS, a 14-residue peptide of the SARS-CoV-2 spike HR2 region.

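In library AAYL50, one, two or three CDR residues were substituted; doubles and triples were drawn at random. Affinity was read by AlphaSeq, a pooled yeast mating assay with surface-displayed partners. After mating in shaken culture at 30 °C for 16 h, diploids were selected and their barcode pairs sequenced. Read counts were normalised to the haploid input and turned into Kd by a linear fit to BCL2-family pairs of known affinity, for each replicate. There are three technical replicates.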

Each scFv is VH, the linker GGGGSGGGGSGGGGS, VL, as in the parent Ab-14, and differs from it in the CDRs of the light chain only.
VH: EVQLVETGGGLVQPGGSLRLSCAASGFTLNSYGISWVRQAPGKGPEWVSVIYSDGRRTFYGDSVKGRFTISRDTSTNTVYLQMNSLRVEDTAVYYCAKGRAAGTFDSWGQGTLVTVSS
VL: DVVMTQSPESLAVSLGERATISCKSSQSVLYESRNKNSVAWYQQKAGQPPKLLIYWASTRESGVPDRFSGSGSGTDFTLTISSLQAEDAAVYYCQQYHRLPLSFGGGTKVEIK

Positions count from residue 1 of the parent VL; K24Q puts Q in place of K. This list gathers variants with a substitution at K24 (VL, numbered from residue 1). Scale: log10 of Kd in nM, estimated from mating counts; low values are strong binders. A mean of the replicates is given; it leaves out those without a signal. A pair that was not seen in any replicate is written "no signal"; this usually means weak binding, but a binder can also be missed.

* K24Q/E32A/S33A -> 1.26 (3 of 3 replicates)
* K24A/Y97D/S103A -> 5.00 (1 of 3 replicates)
* K24T/R34N/A57W -> no signal (0 of 3 replicates)
* K24R/S62P/Y97P -> 3.51 (1 of 3 replicates)
* K24R/S26V/P101C -> no signal (0 of 3 replicates)
* K24Q/S62W/Q95C -> 1.48 (3 of 3 replicates)
* K24G/K36S/V39P -> no signal (0 of 3 replicates)
* K24N/Q27M/W56E -> 3.60 (1 of 3 replicates)
* K24W/S28P/N35T -> 2.25 (3 of 3 replicates)
* K24N/S25C/K36M -> 3.92 (2 of 3 replicates)
* K24N/Q27I/L100G -> 1.09 (3 of 3 replicates)
* K24G/Q27L/L102Q -> 2.93 (1 of 3 replicates)
* K24L/Y31S/A40V -> 4.35 (1 of 3 replicates)
* K24L/S33V/R60A -> no signal (0 of 3 replicates)
* K24W/S26N/S58Y -> no signal (0 of 3 replicates)
* K24I/N37Q -> 2.50 (3 of 3 replicates)
* K24D/W56S/S62D -> 0.13 (3 of 3 replicates)
* K24M/K36W/Q96V -> 2.87 (3 of 3 replicates)
* K24I/V29D/L102S -> no signal (0 of 3 replicates)
* K24M/R34F/L102K -> no signal (0 of 3 replicates)
* K24Q/S33T/H98E -> 2.61 (3 of 3 replicates)
* K24S/Q27F/S28G -> 1.55 (3 of 3 replicates)
* K24N -> 1.12 (3 of 3 replicates)
* K24C/S25M/K36N -> 0.37 (3 of 3 replicates)
* K24R/S58V -> 1.71 (3 of 3 replicates)
* K24L/S62W -> 3.48 (2 of 3 replicates)
* K24S/S33R/N35M -> 2.79 (3 of 3 replicates)
* K24L/A40T/Q96L -> 3.88 (1 of 3 replicates)
* K24F/R34T/T59R -> 3.90 (1 of 3 replicates)
* K24V/S26V/A40G -> no signal (0 of 3 replicates)

The closing 2 entries, repeated:

* K24F/R34T/T59R = 3.90 (1 of 3 replicates)
* K24V/S26V/A40G = no signal (0 of 3 replicates)

Background: pairings of library AAYL50 with three empty control strains gave a value in 18% of cases (median 4.19, 5th percentile 2.99). Values in that range, when seen in few replicates, are hard to tell from nonspecific mating. In this assay the parent's reference entry averaged 0.65; its copy inside this library read 1.68.